The target in this test is T1, DPPIV (Homo sapiens, UniProt P27487).
T1 construct: from tissue; host or cells: prostasomes from human seminal plasma, purified on immobilized adenosine deaminase
The test is classed as biochemical. The following applies: pH 8.3.

Chains of the proteins cited; added tags and fusions are not shown.
UniProt P27487, whole entry: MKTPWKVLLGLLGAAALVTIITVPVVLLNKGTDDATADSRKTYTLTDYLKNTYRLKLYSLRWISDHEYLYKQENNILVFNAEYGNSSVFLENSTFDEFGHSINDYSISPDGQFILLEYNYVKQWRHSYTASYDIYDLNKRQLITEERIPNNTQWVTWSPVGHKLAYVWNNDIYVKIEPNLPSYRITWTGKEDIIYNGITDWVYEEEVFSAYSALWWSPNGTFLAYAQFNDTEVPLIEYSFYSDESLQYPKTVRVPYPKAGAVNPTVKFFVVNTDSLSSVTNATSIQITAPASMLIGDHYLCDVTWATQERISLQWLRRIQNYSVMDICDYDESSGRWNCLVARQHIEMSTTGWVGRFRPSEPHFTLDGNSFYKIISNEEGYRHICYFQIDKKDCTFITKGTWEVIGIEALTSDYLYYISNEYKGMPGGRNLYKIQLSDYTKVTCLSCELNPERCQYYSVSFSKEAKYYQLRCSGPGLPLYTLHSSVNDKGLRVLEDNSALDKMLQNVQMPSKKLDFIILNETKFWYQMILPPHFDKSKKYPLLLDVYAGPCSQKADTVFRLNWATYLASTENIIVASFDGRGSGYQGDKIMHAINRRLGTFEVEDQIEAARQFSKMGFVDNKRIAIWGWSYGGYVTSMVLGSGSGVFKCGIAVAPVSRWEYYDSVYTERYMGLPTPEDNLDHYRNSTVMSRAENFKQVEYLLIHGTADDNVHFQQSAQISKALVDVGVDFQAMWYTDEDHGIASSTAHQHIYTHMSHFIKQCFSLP

As for `Cl.N[C@@H](Cc1ccc(F)cc1)C(=O)N1CCC[C@H]1P(=O)(Oc1ccccc1)Oc1ccccc1` [pF-Phe-Pro^P -(OPh)2, Diphenyl (R)-1-[(S)-p-fluorophenylalanyl]pyrrolidine-2-phosphonate hydrochloride], the “K+ (second order rate constant)” value was 40.

Regarding `Cl.N[C@@H](Cc1ccccc1)C(=O)N1CCC[C@H]1P(=O)(Oc1ccccc1)Oc1ccccc1` [Phe-Pro^P -(OPh)2, Diphenyl (R)-1-[(S)-phenylalanyl]pyrrolidine-2-phosphonate hydrochloride], the “K+ (second order rate constant)” value is on record as 36.

The record behind these values is patent publication US6090786A, “Serine proteases, their activity and their synthetic inhibitors” (priority 1994, dated 2000).
